Paper PMC9722229 (European journal of pharmacology, 2019)

By UniProt entry, the sequences of proteins in these tests, tags left out. Where a name states a change or a piece, a line headed by the entry shows the natural chain unless it says otherwise.
UniProt Q12809: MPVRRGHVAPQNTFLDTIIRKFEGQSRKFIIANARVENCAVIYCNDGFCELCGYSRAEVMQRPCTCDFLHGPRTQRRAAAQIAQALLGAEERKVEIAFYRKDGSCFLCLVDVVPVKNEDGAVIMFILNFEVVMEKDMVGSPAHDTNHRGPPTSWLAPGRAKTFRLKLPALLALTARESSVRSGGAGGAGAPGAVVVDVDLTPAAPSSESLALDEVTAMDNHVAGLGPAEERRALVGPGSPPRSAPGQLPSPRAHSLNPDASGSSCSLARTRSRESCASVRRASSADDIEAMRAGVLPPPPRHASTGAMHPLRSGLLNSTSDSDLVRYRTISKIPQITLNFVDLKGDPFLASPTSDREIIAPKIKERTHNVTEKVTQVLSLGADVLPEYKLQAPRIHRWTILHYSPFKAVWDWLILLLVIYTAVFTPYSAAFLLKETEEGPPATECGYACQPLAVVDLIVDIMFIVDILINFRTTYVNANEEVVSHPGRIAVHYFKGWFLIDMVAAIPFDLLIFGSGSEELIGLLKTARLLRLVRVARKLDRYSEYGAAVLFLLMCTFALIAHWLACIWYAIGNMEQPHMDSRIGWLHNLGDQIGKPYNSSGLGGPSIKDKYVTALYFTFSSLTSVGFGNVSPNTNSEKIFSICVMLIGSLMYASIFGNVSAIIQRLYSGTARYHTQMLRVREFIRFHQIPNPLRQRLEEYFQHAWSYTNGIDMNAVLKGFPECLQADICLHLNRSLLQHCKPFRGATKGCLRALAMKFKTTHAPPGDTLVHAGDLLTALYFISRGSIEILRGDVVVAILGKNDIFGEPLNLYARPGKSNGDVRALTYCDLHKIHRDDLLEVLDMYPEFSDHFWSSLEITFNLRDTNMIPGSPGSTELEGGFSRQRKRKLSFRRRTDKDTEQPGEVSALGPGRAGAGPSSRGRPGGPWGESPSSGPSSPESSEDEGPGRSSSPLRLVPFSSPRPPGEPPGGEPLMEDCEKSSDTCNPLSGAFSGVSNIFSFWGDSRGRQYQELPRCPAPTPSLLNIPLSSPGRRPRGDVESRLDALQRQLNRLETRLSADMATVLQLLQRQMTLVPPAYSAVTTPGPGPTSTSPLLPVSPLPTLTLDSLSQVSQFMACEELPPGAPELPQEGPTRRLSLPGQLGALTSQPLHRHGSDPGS

Target: hERG channel (Homo sapiens, UniProt Q12809)

## COc1cc(N)c(Cl)cc1C(=O)NC1CCN(CCCOc2ccc(F)cc2)CC1OC (stereo not shown) [Cisapride, reference compound]
  Inhibition of the hERG channel (in words): potent inhibition
